Data as given in ChEMBL document CHEMBL4184302, “Virtual target screening reveals rosmarinic acid and salvianolic acid A inhibiting metallo- and serine-β-lactamases” (Bioorg Med Chem Lett, 2018).

Assays:
Bacteria [1] = test system: Bacteria
Bacteria [2] = test system: Bacteria; remark: listed apart in the source

In the case of `O=C(/C=C/c1ccc(O)c(O)c1)O[C@H](Cc1ccc(O)c(O)c1)C(=O)O` [ROSMARINIC ACID], the Km (Bacteria [1]) is reported as 37.4 µM and the Ka (Bacteria [2]) is reported as 9.85 ×10⁴ /M.
